Measurements: PubChem BioAssay (NCI)
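Cultured in 96-well plates, cells were exposed to test compound for 48 hours across five concentrations. At the GI50, growth is halved. TGI is the concentration that stops growth completely.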

System: MDA-MB-468 breast
Assay: NCI anticancer screen, dose series, 48 h

O=[As]c1ccc(S(=O)(=O)Nc2ccccc2)cc1 (configuration not stated)
GI50: 1.37 µM | TGI: 3.13 µM
